Assay results as given in US4048334A, “Active derivatives of methylamino in therapeutic compositions and methods of use” (priority 1974, dated 1977).

Columns and labels:
[1] = Toxico-pharmacological index (LD50 / effective dose in catatonia); conditions: in vivo
[2] = test system: reserpine-induced and neuroleptic-induced catatonia; assay: as above

Structure (SMILES)	selectivity ratio [1]	Index LD50/ED100 ([2]; ED100: 100% inhibition of the catatonia)	toxico-pharmacological index LD50/ED50 ([2]; curative treatment, neuroleptic-induced catatonia)
CCCC(N)(CCC)CCC	≥ 33	–	–
CCCC(N)(CCC)CCC [Compound 1]	–	20	20
